Laboratory results as given in EP4840874A1, “NOVEL PEPTIDE HAVING ACTIVITIES OF INHIBITING MUSCLE LOSS AND PROMOTING MUSCLE GROWTH, AND USES THEREOF” (dated 2026).

Key:
C2C12 myoblasts [1] = assay: Myogenesis-related protein expression (Western blot); details: 1 hour
Protocol: To determine the effect of the peptide prepared in Preparation Example 1 on myogenesis, the expression levels of myogenesis-related protein markers in myoblasts were evaluated through Western blot analysis.
C2C12 cells (mouse myoblast line) were cultured in DMEM medium containing 1% P/S and 10% FBS. When cell confluency reached approximately 70 to 80%, cells were seeded into 6-well culture plates at a density of 5 x 10^5 cells/well by 2 ml. After 1 day, the medium was replaced with serum-free DMEM medium (1% P/S), and after 4 hours, the peptide of SEQ ID NO: 1 was added at a concentration of 5 µM or 50 µM. After 1 hour, lysis buffer was added to lyse the cells, which was then centrifuged at 4°C and 12,000 rpm for 30 minutes to obtain the protein, which was quantified using a BCA kit. SDS-PAGE was performed on the protein, and it was electrotransferred onto a membrane. After blocking the protein-electrophoresed membrane with 5% skim milk, anti-pPI3K primary antibody (Cell signaling Technology, USA) and anti-p70S6K primary antibody (Cell signaling Technology, USA) were reacted with anti-β-actin primary antibody (Santa Cruz, USA) as a loading control overnight at 4°C. The membrane was washed with PBS-T, and Peroxidase-conjugated AffiniPure Goat Anti-Rabbit IgG (H+L) secondary antibody (Jackson immunoResearch, USA) and Peroxidase-conjugated AffiniPure Goat Anti-Mouse IgG (H+L) secondary antibody (Jackson immunoResearch, USA) were reacted at room temperature for 1 hour. After washing the membrane again with PBS-T, visualization was performed using Gel Doc (Bio-Rad, Hercules, CA, USA) with Western detection reagent (Elpis Biotech, Daejeon, Korea).

C2C12 myoblasts [2] = assay: Myoblast proliferation (EZ-cytox cell viability test)
Protocol: To analyze the effect of the peptide prepared in Preparation Example 1 on myoblast proliferation, cell viability/cytotoxicity tests were performed.
C2C12 cells (mouse myoblast line) were cultured in DMEM medium containing 1% P/S and 10% FBS. When the cell confluency reached approximately 70 to 80%, cells were seeded into 96-well culture plates at a density of 5 x 10^3 cells/well by 200 µl. After 1 day, the medium was replaced with serum-free DMEM medium (1% P/S), and after 4 hours, it was replaced with DMEM containing 0.2% FBS while adding the peptide of SEQ ID NO: 1 at concentrations of 5 µM, 50 µM, or 100 µM. After 48 and 72 hours, the reaction was carried out using EZ-cytox (DoGenBio Co., Ltd, Seoul, Korea) until the absorbance of Non reached 1.0, and the absorbance at 450 nm was measured using a Spectrophotometer (SPECTRAMAX M2e).

HepG2 hepatocytes = assay: Fat synthesis-related protein expression in oleic acid-treated hepatocytes (Western blot); details: 500 µM oleic acid, 5 or 50 µM peptide, 48 hours
Protocol: To determine the effect of the peptide prepared in Preparation Example 1 on the expression of proteins related to fat synthesis, the expression levels of fat synthesis-related protein markers in hepatocytes were evaluated through Western blot analysis.
HepG2 cells (human hepatocyte line) were cultured in DMEM medium containing 1% P/S and 10% FBS. When cell confluency reached approximately 70 to 80%, cells were seeded into 12-well culture plates at a density of 1 x 10^5 cells/well by 1 ml. Subsequently, when cell confluency in the 12-well culture plates reached approximately 70 to 80%, the medium was replaced with serum-free DMEM medium. After 4 hours, the medium was replaced with serum-free DMEM (1% BSA) supplemented with 500 µM oleic acid (Sigma, USA), and the peptide of SEQ ID NO: 1 was treated at a concentration of 5 µM or 50 µM and incubated for 48 hours. After incubation, lysis buffer was added to lyse the cell, which was then centrifuged at 4°C and 12,000 rpm for 30 minutes to obtain the protein, which was quantified using a BCA kit. SDS-PAGE was performed on the protein, and the protein was electrotransferred onto a membrane. After blocking the protein-electrophoresed membrane with 5% skim milk, the anti-SREBP1 primary antibody (Abcam, UK) was reacted with the anti-β-actin primary antibody (Santa Cruz, USA) as a loading control overnight at 4°C. […]

C2C12 myoblasts [3] = assay: Muscle protein synthesis-related protein expression (Western blot); details: 5 or 50 µM, 3 days differentiation
Protocol: To determine the effect of the peptide prepared in Preparation Example 1 on the expression of proteins related to muscle protein synthesis, the expression levels of signaling protein markers related to muscle protein synthesis in myoblasts were evaluated through Western blot analysis.
C2C12 cells (mouse myoblast line) were cultured in DMEM medium containing 1% P/S and 2% BCS. When cell confluency reached approximately 70 to 80%, cells were seeded into 6-well culture plates at a density of 5 x 10^5 cells/well with 2 ml aliquots. Subsequently, when cell confluency reached 100%, the medium was replaced with differentiation medium (1% P/S, 2% horse serum), and the peptide of SEQ ID NO: 1 was added at a concentration of 5 µM or 50 µM. Subsequently, the differentiation medium and the peptide of SEQ ID NO: 1 were replaced every two days. Three days after the first replacement, lysis buffer was added to lyse the cells, which was then centrifuged at 4°C and 12,000 rpm for 30 minutes to obtain the protein, which was quantified using a BCA kit. SDS-PAGE was performed on the protein, and the protein was electrotransferred onto a membrane. After blocking the protein-electrophoresed membrane with 5% skim milk, the anti-SIRT1 primary antibody (Cell signaling Technology, USA), anti-IGF-1 primary antibody (Cell signaling Technology, USA), anti-pmTOR primary antibody (Cell signaling Technology, USA), and anti-p70S6K primary antibody (Cell signaling Technology, USA) were reacted with the anti-β-actin primary antibody (Santa Cruz, USA) as a loading control overnight at 4°C. The membrane was washed with PBS-T, and the Peroxidase-conjugated AffiniPure Goat Anti-Rabbit IgG (H+L) secondary antibody (Jackson immunoResearch, USA) and the Peroxidase-conjugated AffiniPure Goat Anti-Mouse IgG (H+L) secondary antibody (Jackson immunoResearch, USA) were incubated for 1 hour at room temperature. After washing the membrane again with PBS-T, visualization was performed using a Gel Doc (Bio-Rad, Hercules, CA, USA) with a Western detection reagent (Elpis Biotech, Daejeon, Korea).

## CC(C)[C@H](NC(=O)[C@@H](NC(=O)[C@@H](N)CC(=O)O)[C@@H](C)O)C(=O)N[C@@H](CCC(=O)O)C(=O)N[C@@H](CC(N)=O)C(=O)O
C2C12 myoblasts [1]; 5 or 50 µM
  expression of p70S6K: increased in a concentration-dependent manner
  expression of pPI3K: increased in a concentration-dependent manner
C2C12 myoblasts [1]; peptide concentration 50 µM
  p70S6K protein expression increase: approximately 135%
  pPI3K protein expression increase: approximately 39%
C2C12 myoblasts [2]; 5, 50 or 100 µM, 48 and 72 hours
  cell proliferation level in C2C12 myoblasts: increased in a concentration-dependent manner
C2C12 myoblasts [2]; 48 hours, peptide concentration 50 µM
  proliferation level of C2C12 myoblasts increased: approximately 17%
C2C12 myoblasts [2]; 72 hours, peptide concentration 100 µM
  proliferation level of C2C12 myoblasts increased: approximately 42%
HepG2 hepatocytes
  protein expression level of SREBP1 increased by oleic acid: reduced
C2C12 myoblasts [3]
  protein expression level of IGF-1: significantly increased in a peptide concentration-dependent manner
  protein expression level of SIRT1: significantly increased in a peptide concentration-dependent manner
  protein expression level of p70S6K: significantly increased in a peptide concentration-dependent manner
  protein expression level of pmTOR: significantly increased in a peptide concentration-dependent manner
